Measured affinities in a library of Ab-14 heavy chain variants

Source: Li et al. 2023 (doi:10.1038/s41467-023-39022-2), MIT Lincoln Laboratory and A-Alpha Bio; data file from the FLAb repository.

All variants were tested on one target, the spike HR2 peptide PDVDLGDISGINAS (SARS-CoV-2).

Ab-14 is the parent antibody, in scFv form: VH, then a 15-residue (Gly4Ser)3 linker, then VL. The light chain is unchanged in all variants.
VH: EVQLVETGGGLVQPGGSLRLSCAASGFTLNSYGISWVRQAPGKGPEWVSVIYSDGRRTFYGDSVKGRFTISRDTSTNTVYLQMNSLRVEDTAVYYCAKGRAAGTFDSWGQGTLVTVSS
VL: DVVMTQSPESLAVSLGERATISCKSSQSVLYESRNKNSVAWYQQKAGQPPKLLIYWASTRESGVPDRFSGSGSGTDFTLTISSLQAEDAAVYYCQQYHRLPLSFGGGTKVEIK

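Phage display of a naive human antibody library on the peptide gave the parent. This is the validation round: designs drawn from the data on random variants, tested in the same kind of assay. Group labels follow the data file (Ctrl: baseline library sampled from a position-specific scoring matrix, with some repeated check sequences; Rand: our label for a block that the file lists under HC and that is probably the random mutants of the ten best first-round binders; En: ensemble of fine-tuned language models; HC: hill climbing; Gen: genetic algorithm; Gibbs: Gibbs sampling; a sequence that several methods proposed may carry one label only). In AlphaSeq, yeast of one mating type display the scFv and yeast of the other type display the target. After mating in shaken culture at 30 °C for 16 h, diploids were selected and their barcode pairs sequenced. The ratio of observed to expected reads was calibrated, replicate by replicate, on BCL2-family standards whose Kd was known from biolayer interferometry. Each pool was mated in six replicate cultures.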

Sequences are complete VH domains. This list holds designs with more than six substitutions. Values are log10 of the apparent Kd in nM; lower means stronger binding. Averages over replicates are reported, and they cover detected replicates only. An entry "nd" has no value in the source: the pair was not observed among the diploids in any replicate. This suggests poor binding but is not conclusive. In the paper, a design with two or fewer of six values counts as a poor binder.

Variant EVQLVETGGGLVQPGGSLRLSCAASGFDLNEYGISWVRQAPGKGPEWVSVIYADGVRKAYADSVKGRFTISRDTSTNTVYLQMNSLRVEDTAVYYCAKGSNAGTFDVWGQGTLVTVSS [En_Gen] showed -0.49 (6 of 6 replicates; controls 1 of 18). With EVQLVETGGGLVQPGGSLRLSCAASGFDLNEYGISWVRQAPGKGPEWVSVIYADGRRTFYSDSVKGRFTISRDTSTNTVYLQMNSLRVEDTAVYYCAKGQVAGTFDVWGQGTLVTVSS [En_HC] the result was -0.60 (6 of 6 replicates; controls 1 of 18). Variant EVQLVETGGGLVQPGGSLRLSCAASGFDLDEYGISWVRQAPGKGPEWVSVIYADGMRTAYSDSVKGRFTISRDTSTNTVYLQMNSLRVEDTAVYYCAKGETAGTFDMWGQGTLVTVSS [En_Gen] gave 0.94 (6 of 6 replicates; controls 0 of 18). Variant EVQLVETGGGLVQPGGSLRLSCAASGMSLDEYGISWVRQAPGKGPEWVSVIYADGVRCAYANTVKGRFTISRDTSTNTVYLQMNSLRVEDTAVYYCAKGELAGFFMLWGQGTLVTVSS [En_Gibbs] showed nd (0 of 6 replicates; controls 0 of 18). For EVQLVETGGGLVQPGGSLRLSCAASGYDIQDYGISWVRQAPGKGPEWVSVIYADGVRVAYHDSVKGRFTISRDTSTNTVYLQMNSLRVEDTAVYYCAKGQTAGFFLLWGQGTLVTVSS [En_Gibbs], the assay gave nd (0 of 6 replicates; controls 0 of 18). For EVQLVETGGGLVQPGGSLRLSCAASGFDLDEYGISWVRQAPGKGPEWVSVIYADGQRTAYADSVKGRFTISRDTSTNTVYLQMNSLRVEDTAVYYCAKGNVAGTFDEWGQGTLVTVSS [En_Gen], the assay gave -0.57 (6 of 6 replicates; controls 0 of 18). For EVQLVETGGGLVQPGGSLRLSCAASGFDLNEYGISWVRQAPGKGPEWVSVIYADGVRTAYIDSVKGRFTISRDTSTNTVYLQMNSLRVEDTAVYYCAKGNQAGTFDQWGQGTLVTVSS [En_HC], the assay gave -0.20 (6 of 6 replicates; controls 1 of 18). Variant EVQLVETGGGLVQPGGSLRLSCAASGFNLDEYGISWVRQAPGKGPEWVSVIYADGQRTYYTQKVKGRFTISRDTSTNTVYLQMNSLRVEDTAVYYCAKGGIQDANMGWGQGTLVTVSS [En_Gibbs] showed nd (0 of 6 replicates; controls 1 of 18). Variant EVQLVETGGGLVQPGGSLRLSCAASGFEIDEYGISWVRQAPGKGPEWVSVIYADGIRSSYNDNVKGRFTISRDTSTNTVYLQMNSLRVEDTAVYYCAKGQLGGAFDLWGQGTLVTVSS [En_Gibbs] showed nd (0 of 6 replicates; controls 0 of 18).

Variant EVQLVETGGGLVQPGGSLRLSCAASGYNINSYGISWVRQAPGKGPEWVSVIYADGRRNAYGDSVKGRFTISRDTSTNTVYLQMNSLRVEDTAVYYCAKGRAADTFDSWGQGTLVTVSS [Ctrl] gave 1.93 (1 of 6 replicates; controls 0 of 18). Variant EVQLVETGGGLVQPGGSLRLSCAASGFDLDEYGISWVRQAPGKGPEWVSVIYADGMRSYYADSVKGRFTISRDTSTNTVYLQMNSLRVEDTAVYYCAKGNVAGTFDVWGQGTLVTVSS [En_Gen] showed -0.03 (6 of 6 replicates; controls 0 of 18). With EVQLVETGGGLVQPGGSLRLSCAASGFNLDEYGISWVRQAPGKGPEWVSVIYADGRRTFYADSVKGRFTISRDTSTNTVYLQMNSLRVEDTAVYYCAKGTLAGTFDAWGQGTLVTVSS [En_HC] the result was -1.08 (6 of 6 replicates; controls 0 of 18). Variant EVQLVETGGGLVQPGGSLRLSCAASGFDIEEYGISWVRQAPGKGPEWVSVIYADGVRAAYADSVKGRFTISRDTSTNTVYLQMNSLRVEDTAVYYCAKGENMDIMTDWGQGTLVTVSS [En_Gibbs] showed nd (0 of 6 replicates; controls 0 of 18). Variant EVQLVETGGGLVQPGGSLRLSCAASGFHLNGYGISWVRQAPGKGPEWVSVIRSDGRDTFYDDSVKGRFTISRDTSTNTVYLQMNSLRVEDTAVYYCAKGQLAGTFDSWGQGTLVTVSS [Rand] showed nd (0 of 6 replicates; controls 1 of 18). Variant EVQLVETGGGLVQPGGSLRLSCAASGFDLNEYGISWVRQAPGKGPEWVSVIYADGQRTAYTDSVKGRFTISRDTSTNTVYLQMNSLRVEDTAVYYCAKGNQAGTFDIWGQGTLVTVSS [En_Gen] showed -0.34 (6 of 6 replicates; controls 0 of 18). With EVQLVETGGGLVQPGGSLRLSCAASGFNLDEYGISWVRQAPGKGPEWVSVIYADGRRTFYQDSVKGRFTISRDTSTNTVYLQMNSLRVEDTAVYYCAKGEVAGTFDQWGQGTLVTVSS [En_HC] the result was -0.93 (6 of 6 replicates; controls 0 of 18). For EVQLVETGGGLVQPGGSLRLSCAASGFNLNLYGISWVRQAPGKGPEWVSVIYSDGRREFYGDSVKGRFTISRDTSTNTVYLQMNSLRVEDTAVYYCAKGNAAGFSHSWGQGTLVTVSS [Ctrl], the assay gave 1.75 (1 of 6 replicates; controls 1 of 18). For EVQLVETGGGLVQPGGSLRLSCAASEFDLQEYGISWVRQAPGKGPEWVSVIYADGKREAYKDNFKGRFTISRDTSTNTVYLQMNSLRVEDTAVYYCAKGNGAGVFDAWGQGTLVTVSS [En_Gibbs], the assay gave nd (0 of 6 replicates; controls 0 of 18).

Variant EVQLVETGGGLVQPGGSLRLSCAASGFDLEDYGISWVRQAPGKGPEWVSVIYADGRRTFYADSVKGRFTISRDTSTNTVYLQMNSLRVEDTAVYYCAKGNVAGTFIVWGQGTLVTVSS [En_HC] gave 0.14 (6 of 6 replicates; controls 0 of 18). With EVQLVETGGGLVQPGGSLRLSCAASGFDLEEYGISWVRQAPGKGPEWVSVIYADGSRTAYADSVKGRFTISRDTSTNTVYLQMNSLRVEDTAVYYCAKGNVAGTFDLWGQGTLVTVSS [En_Gen] the result was -0.32 (6 of 6 replicates; controls 0 of 18). Variant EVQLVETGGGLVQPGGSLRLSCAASGFDLNEYGISWVRQAPGKGPEWVSVIYADGRRTAYTDSVKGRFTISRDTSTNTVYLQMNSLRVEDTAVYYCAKGQNAGTFDQWGQGTLVTVSS [En_HC] gave 2.35 (3 of 6 replicates; controls 0 of 18). Variant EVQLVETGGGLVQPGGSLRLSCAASGFQINEYGISWVRQAPGKGPEWVSVIYADGLRAAYSQEVKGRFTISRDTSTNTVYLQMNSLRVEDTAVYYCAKGQDTGNFVDWGQGTLVTVSS [En_Gibbs] gave 2.21 (2 of 6 replicates; controls 0 of 18). Variant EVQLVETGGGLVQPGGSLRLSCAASGEDLNSYGISWVRQAPGKGPEWVSVIYADGVRTAYADNFKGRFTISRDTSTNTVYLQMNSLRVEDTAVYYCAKGNGEGQFDVWGQGTLVTVSS [En_Gibbs] gave nd (0 of 6 replicates; controls 0 of 18). For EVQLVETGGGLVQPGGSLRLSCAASEFDLNEYGVSWVRQAPGKGPEWVSVIYADGHRTFYADHVKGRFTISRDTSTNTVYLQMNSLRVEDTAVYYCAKGQEAGVFFDWGQGTLVTVSS [En_Gibbs], the assay gave 2.01 (2 of 6 replicates; controls 0 of 18). Variant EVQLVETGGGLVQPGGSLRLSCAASGFSLDEFGISWVRQAPGKGPEWVSVIYADGMRSAYSQNVKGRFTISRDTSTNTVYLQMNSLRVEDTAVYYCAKGQHGGFTVSWGQGTLVTVSS [En_Gibbs] showed -0.06 (6 of 6 replicates; controls 0 of 18).

The 3 strongest on average among those seen in every replicate, once more:

With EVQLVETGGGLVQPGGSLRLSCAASGFNLDEYGISWVRQAPGKGPEWVSVIYADGRRTFYADSVKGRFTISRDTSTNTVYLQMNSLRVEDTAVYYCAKGTLAGTFDAWGQGTLVTVSS [En_HC] the result was -1.08 (6 of 6 replicates; controls 0 of 18).
With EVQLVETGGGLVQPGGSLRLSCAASGFNLDEYGISWVRQAPGKGPEWVSVIYADGRRTFYQDSVKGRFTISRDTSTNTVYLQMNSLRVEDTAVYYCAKGEVAGTFDQWGQGTLVTVSS [En_HC] the result was -0.93 (6 of 6 replicates; controls 0 of 18).
With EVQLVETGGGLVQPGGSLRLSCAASGFDLNEYGISWVRQAPGKGPEWVSVIYADGRRTFYSDSVKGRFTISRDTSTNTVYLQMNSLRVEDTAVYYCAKGQVAGTFDVWGQGTLVTVSS [En_HC] the result was -0.60 (6 of 6 replicates; controls 1 of 18).

Of ten entries with the parent sequence, four were seen in most replicates (averages 0.34 to 2.37), three in one and three in none, so single entries are noisy. Values of this round are not directly comparable with the first-round values of the same sequences. Empty control strains, which show no peptide, gave a signal in 1% of pairings with all heavy chain designs; the median was 2.08 and 95% of these signals were weaker than 0.84. No background was subtracted. Also given: how often the same scFv was detected with the empty control strains.